Test results reported in patent US10864279B2, “Linker-drug and antibody-drug conjugate (ADC) employing the same” (priority 2016, dated 2020).

How the values were obtained:
[1] = Body weight and clinical symptoms, EC PDX model; type: in vivo, NODSCID mice
Procedure: Endometrial cancer tumor tissue obtained from National Taiwan University was confirmed to be HER2-positive (+1). Tumor (2-3 mm diameter) was subcutaneous implanted to NODSCID mice to test the drug efficacy of ADCs in vivo. When the average tumor size was about 100 mm^3, mice were divided into groups and ADCs were intravenously injected (10 mL/kg B.W. injection volume).

[2] = Body weight and clinical symptoms, BT-474 xenograft model; type: in vivo, NODSCID mice; details: 10 mg/kg i.v. twice at Day 0 and Day 21
Procedure: The length and width of the tumor were measured and the tumor size was calculated by (length×width×width×½) (mm^3) and recorded.

ado-trastuzumab emtansine [Kadcyla, reference compound]
BW (%) ± SEM Day 0-60 ([1]; 10 mg/kg i.v.): 102.0 ± 3.4% | weight losing or abnormal clinical symptoms after administration ([1]; 10 mg/kg, in words): no weight losing or other significant abnormal clinical symptoms occurred | BW (%) ± SEM Day 0-60 [2]: 107.9 ± 2^ %
